Data as given in patent US20230151052A1, “NEUROSTEROID COMPOUNDS AND METHODS FOR THEIR PREPARATION AND USE IN TREATING CENTRAL NERVOUS SYSTEM DISORDERS” (published 2023).

Test system: soman-induced seizures
Test: Anticonvulsant efficacy in the nerve agent soman model
Details: given 40-min after soman

| Compound | Termination of SE, soman model |
| --- | --- |
| CC(C)[C@H](N)C(=O)OCC(=O)[C@H]1CC[C@H]2[C@@H]3CCC4C[C@](C)(O)CC[C@]4(C)C3CC[C@]12C.Cl (some centres unmarked) | effectively terminated SE |
| C[C@@]1(O)CC[C@@]2(C)C(CC[C@@H]3C2CC[C@]2(C)[C@@H](C(=O)CO)CC[C@@H]32)C1 (some centres unmarked) | effectively terminated SE |
